Antibody variant affinities, Ab-14 light chain, assay 1

Reference: Engelhart et al. 2022, doi:10.1038/s41597-022-01779-4. File: FLAb, binding data.

Target peptide (SARS-CoV-2 spike, HR2 region): PDVDLGDISGINAS

Each scFv is VH, the linker GGGGSGGGGSGGGGS, VL, as in the parent Ab-14, and differs from it in the CDRs of the light chain only.
VH: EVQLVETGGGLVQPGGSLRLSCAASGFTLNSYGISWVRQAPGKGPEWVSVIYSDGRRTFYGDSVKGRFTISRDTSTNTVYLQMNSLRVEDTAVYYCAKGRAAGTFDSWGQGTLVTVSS
VL: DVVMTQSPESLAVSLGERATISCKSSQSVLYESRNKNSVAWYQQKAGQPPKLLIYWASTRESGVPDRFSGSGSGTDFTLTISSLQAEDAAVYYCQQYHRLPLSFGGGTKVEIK

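The parent was found by panning a naive human phage display library on the peptide. AAYL50 was designed without a model: most single CDR substitutions and a random sample of double and triple ones. The scFvs were displayed on barcoded MATa yeast, the peptide on MATalpha yeast. The frequency of each diploid, read from paired DNA barcodes, reflects how well the two displayed proteins bind. Each replicate has its own calibration line, from reference interactions of the BCL2 family. There are three technical replicates.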

The whole VL of each variant is written out. Affinities are written as log10 Kd with Kd in nM; a lower number is a better binder. The mean shown is taken over the replicates in which the pair was detected. "ND" marks a missing value. The strain was present, yet no cells mated with the target were sequenced in that replicate, which points to weak or no binding. Empty control strains, which show no peptide, gave a signal in 18% of pairings with library AAYL50; the median was 4.19 and 95% of these signals were weaker than 2.99. No background was subtracted. The control count says in how many pairings with the empty strains this scFv gave a signal.

The variant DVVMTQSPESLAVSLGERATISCKSSQSVLYEGRNGNSVAWYQQKAGQPPKLLIYWASTRESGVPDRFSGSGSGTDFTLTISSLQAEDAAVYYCQQYHRLPLLFGGGTKVEIK gave 0.28, 0.51, 0.43 (mean 0.40; controls 1 of 9).
The variant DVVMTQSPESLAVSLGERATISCKSSQSVLYEIRNKNSVAWYQQKAGQPPKLLIYWWSTRESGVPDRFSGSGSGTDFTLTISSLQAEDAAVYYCQQYHRLILSFGGGTKVEIK gave ND, ND, ND (controls 0 of 9).
The variant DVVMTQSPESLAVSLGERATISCKSSQEVLYESTNKNSVAWYQQKAGQPPKLLIYWASTRESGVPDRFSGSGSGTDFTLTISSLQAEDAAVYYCQQYHRLPLWFGGGTKVEIK gave 2.96, 2.66, 3.22 (mean 2.94; controls 0 of 9).
The variant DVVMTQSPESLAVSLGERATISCKSSQSVLYESRNKNSVAWYQQKAGQPPKLLIYFASFRESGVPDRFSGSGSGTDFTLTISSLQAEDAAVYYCQQYHRLPLSFGGGTKVEIK gave 1.57, 1.51, 2.02 (mean 1.70; controls 2 of 9).
The variant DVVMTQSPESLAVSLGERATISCKYSQSVLYYSRNKNSVHWYQQKAGQPPKLLIYWASTRESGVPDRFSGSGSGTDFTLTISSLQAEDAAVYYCQQYHRLPLSFGGGTKVEIK gave ND, ND, 5.43 (controls 2 of 9).
The variant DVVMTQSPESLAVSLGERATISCKASQSVLCESRNPNSVAWYQQKAGQPPKLLIYWASTRESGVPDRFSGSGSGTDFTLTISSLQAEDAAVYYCQQYHRLPLSFGGGTKVEIK gave 3.83, 2.65, 3.19 (mean 3.23; controls 2 of 9).
The variant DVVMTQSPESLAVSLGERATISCKSSQLVLYESRNKNSVAWYQQKAGQPPKLLIYWASTRESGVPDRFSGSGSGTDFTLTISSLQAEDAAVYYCQAVHRLPLSFGGGTKVEIK gave 4.63, ND, ND (controls 2 of 9).
The variant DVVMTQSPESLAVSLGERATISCKRSQSVLYESRNKFSVAWYQQKAGQPPKLLIYWASTRESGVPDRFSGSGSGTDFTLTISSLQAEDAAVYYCQQYWRLPLSFGGGTKVEIK gave 2.15, 2.96, 3.64 (mean 2.92; controls 0 of 9).
The variant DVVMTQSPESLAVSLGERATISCKSSQSVLYESRNKNSVAWYQQKAGQPPKLLIYWASGRESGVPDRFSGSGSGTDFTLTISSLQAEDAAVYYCQQYHYLPLSFGGGTKVEIK gave ND, 3.51, ND (controls 2 of 9).
The variant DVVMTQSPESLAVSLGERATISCKSSSEVLYESRNKNSVAWYQQKAGQPPKLLIYWASTRESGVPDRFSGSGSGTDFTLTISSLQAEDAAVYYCQQYHRLPLQFGGGTKVEIK gave 1.27, 1.31, 1.36 (mean 1.31; controls 4 of 9).
The variant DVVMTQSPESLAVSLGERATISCKSLQSVLYEKRNKNSVAWYQQKAGQPPKLLIYWASTRESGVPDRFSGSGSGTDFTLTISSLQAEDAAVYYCQEYHRLPLSFGGGTKVEIK gave 2.20, 2.90, 2.03 (mean 2.38; controls 2 of 9).
The variant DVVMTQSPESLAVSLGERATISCKSSQSVLYESRNKYSVAWYQQKAGQPPKLLIYWRSTRESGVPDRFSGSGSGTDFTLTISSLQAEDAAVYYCQQYHRLPLSFGGGTKVEIK gave 1.94, 1.98, 1.97 (mean 1.96; controls 1 of 9).
The variant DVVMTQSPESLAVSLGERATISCKSSQSALYEKRNKNSVAWYQQKAGQPPKLLIYWASWRESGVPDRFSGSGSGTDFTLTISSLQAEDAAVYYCQQYHRLPLSFGGGTKVEIK gave 3.67, 2.57, ND (mean 3.12; controls 0 of 9).
The variant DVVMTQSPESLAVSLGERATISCKSSQSVLYELRNKNSVAWYQQKAGQPPKLLIYWASVRESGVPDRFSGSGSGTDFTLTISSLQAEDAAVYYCQGYHRLPLSFGGGTKVEIK gave ND, 4.55, 3.39 (mean 3.97; controls 3 of 9).
The variant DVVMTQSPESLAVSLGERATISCKSTQSELYESRNKNSVAWYQQKAGQPPKLLIYWASTRESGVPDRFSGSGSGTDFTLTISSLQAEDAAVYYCQQRHRLPLSFGGGTKVEIK gave 2.25, 2.67, 2.11 (mean 2.35; controls 3 of 9).
The variant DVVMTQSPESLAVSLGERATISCKSSLEVLYESRNKNSVAWYQQKAGQPPKLLIYWASTRESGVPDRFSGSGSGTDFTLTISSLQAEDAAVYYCQQYHRLFLSFGGGTKVEIK gave ND, 5.51, ND (controls 5 of 9).
The variant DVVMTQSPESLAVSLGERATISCKSSQSVRYESRNKNSVAWYQQKAGQPPKLLIYWAATRESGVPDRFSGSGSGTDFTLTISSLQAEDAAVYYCQQYHRFPLSFGGGTKVEIK gave 2.08, 2.37, 2.45 (mean 2.30; controls 2 of 9).
The variant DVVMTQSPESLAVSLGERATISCKSSQSVLYESRNKNSVAWYQQKAGQPPKLLIYWAWTRESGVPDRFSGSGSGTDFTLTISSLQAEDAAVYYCQPYHRLPLLFGGGTKVEIK gave ND, 2.22, 2.38 (mean 2.30; controls 0 of 9).
The variant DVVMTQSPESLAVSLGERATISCKSSQSVLYESRNKNSVAWYQQKAGQPPKLLIYWISTRESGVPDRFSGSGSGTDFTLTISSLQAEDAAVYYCMQYHRLPASFGGGTKVEIK gave ND, 4.06, 4.48 (mean 4.27; controls 4 of 9).
The variant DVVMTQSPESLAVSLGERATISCKSSQSVLYESRNKNSVAWYQQKAGQPPKLLIYEASTREWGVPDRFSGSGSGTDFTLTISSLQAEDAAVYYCQQYHRLALSFGGGTKVEIK gave 0.04, 0.31, 0.11 (mean 0.15; controls 4 of 9).
The variant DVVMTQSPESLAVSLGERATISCKSSQSVLYESRNKNSVIWYQQKAGQPPKLLIYWASTRESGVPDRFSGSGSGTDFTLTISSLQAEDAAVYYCQGYHRLPMSFGGGTKVEIK gave ND, ND, ND (controls 0 of 9).
The variant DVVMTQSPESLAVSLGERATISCKSSQSVLYESRNKNSVAWYQQKAGQPPKLLIYWASTEESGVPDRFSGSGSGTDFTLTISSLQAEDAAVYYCQVYHRLPESFGGGTKVEIK gave ND, ND, 3.77 (controls 0 of 9).
The variant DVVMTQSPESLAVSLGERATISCPSSQSVLYESREKNSVAWYQQKAGQPPKLLIYWASTRESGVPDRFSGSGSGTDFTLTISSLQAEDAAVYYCQQYHLLPLSFGGGTKVEIK gave ND, ND, ND (controls 2 of 9).
The variant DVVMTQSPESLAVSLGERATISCKSSQSVLYTSRMKNSVAWYQQKAGQPPKLLIYWAVTRESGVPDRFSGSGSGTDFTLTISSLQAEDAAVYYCQQYHRLPLSFGGGTKVEIK gave 3.23, 3.28, 4.12 (mean 3.54; controls 1 of 9).
The variant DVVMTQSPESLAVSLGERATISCKSSQSVLYESRNKNSVAWYQQKAGQPPKLLIYWASTCESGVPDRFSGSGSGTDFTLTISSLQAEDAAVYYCQQYHRRPLRFGGGTKVEIK gave 4.18, 3.19, 4.46 (mean 3.94; controls 2 of 9).

The last 4 entries again:

| VL | log10 Kd (nM) by replicate | mean, log10 nM | control signals |
|---|---|---|---|
| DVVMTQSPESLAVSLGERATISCKSSQSVLYESRNKNSVAWYQQKAGQPPKLLIYWASTEESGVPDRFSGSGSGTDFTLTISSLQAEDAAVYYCQVYHRLPESFGGGTKVEIK | ND, ND, 3.77 | 3.77 | 0 of 9 |
| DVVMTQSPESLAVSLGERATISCPSSQSVLYESREKNSVAWYQQKAGQPPKLLIYWASTRESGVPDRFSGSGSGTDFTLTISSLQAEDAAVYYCQQYHLLPLSFGGGTKVEIK | ND, ND, ND | ND | 2 of 9 |
| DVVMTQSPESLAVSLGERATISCKSSQSVLYTSRMKNSVAWYQQKAGQPPKLLIYWAVTRESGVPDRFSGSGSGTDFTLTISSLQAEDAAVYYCQQYHRLPLSFGGGTKVEIK | 3.23, 3.28, 4.12 | 3.54 | 1 of 9 |
| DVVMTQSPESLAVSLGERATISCKSSQSVLYESRNKNSVAWYQQKAGQPPKLLIYWASTCESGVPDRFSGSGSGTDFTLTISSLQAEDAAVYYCQQYHRRPLRFGGGTKVEIK | 4.18, 3.19, 4.46 | 3.94 | 2 of 9 |